Data taken from patent US6410554B1, “Combination therapy for the treatment of benign prostatic hyperplasia” (Merck & Co., Inc., priority 1998, dated 2002).

Target: T1, human alpha-1a adrenergic receptor (Homo sapiens, UniProt P35348)
T1 sequence (P35348 1-466): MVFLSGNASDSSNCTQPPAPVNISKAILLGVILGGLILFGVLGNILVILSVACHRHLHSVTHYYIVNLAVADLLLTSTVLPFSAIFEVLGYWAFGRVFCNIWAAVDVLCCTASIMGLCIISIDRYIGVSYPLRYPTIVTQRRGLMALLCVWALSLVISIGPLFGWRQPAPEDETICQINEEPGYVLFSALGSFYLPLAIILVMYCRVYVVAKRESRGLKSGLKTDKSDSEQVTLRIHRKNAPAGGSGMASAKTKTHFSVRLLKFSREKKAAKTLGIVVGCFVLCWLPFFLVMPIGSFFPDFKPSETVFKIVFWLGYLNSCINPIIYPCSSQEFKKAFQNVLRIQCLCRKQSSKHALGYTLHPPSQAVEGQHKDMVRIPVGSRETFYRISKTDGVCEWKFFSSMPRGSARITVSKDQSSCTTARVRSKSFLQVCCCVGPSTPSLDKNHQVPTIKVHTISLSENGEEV
Experiment: selectivity for the alpha-1a adrenergic receptor (assays described in WO 96/14846)
Assay type: binding
Details: Compound A and pharmaceutically acceptable salts thereof
Method: Compound A is prepared according to the procedure of Example 30 in WO 96/14846 or according to the processes disclosed in detail herein. The identification of Compound A as an alpha-1a adrenergic receptor antagonist was established according to the assays described in WO 96/14846.
One implication of this selectivity is that these compounds display selectivity for lowering intraurethral pressure without substantially affecting diastolic blood pressure.

(+)-5-Methoxycarbonyl-6-(3,4-difluorophenyl-4-methoxymethyl-1-{N-[3-(4-(2-pyridyl)piperdin-1-yl)propyl]}-carboxamido-2-oxo-1,2,3,6-tetrahydropyrimidine [Compound A]
selectivity for the human alpha-1a adrenergic receptor: high selectivity
